# Test system: MAPK (p38, Erk1/2 and JNK)
substance,measurement,setting,value
methyl-β-cyclodextrin [MBCD],"phosphorylation of p38, ERK1/2 or JNK by MBCD alone",1 or 5 mM MBCD,no significant phosphorylation
same,levels of phosphorylated p38 and ERK1/2 in MBCD-treated vs saline-treated MØ,20 min after chitin particle stimulation,markedly increased
